The conditions of series [1]: foot pad injection 80 uCi/50 uL, 60 minutes after injection, three white mice, FIG. 7.

The record followed here is patent US10881750B2, “Sentinel lymph node marker capable of multi-mode imaging” (NATIONAL CANCER CENTER, priority 2010, dated 2021).

For the substance “[Tc-99m]Tc-indocyanine green-Evans blue-human serum albumin”, the “uptake level (radioactivity of each tissue, percentage relative to injection amount)” value in series [1] is on record as “significantly higher in the sentinel lymph node than in other organs”. Moreover, the “uptake of the marker in SPECT gamma images” value (foot pad injection 100 uCi, 60 minutes after injection, NanoSPECT) was “only the injected area and the lymph node had a strong uptake of the marker, while other organs did not show any uptake of the marker”. For the same substance, under “foot pad injection, white mice”, the “time the marker can remain in the sentinel lymph node” value is given as “at least 1 hour”.
